Chains of the proteins cited; added tags and fusions are not shown. Residues count along the entry.
UniProt Q86X55, 1-585 isoform 1: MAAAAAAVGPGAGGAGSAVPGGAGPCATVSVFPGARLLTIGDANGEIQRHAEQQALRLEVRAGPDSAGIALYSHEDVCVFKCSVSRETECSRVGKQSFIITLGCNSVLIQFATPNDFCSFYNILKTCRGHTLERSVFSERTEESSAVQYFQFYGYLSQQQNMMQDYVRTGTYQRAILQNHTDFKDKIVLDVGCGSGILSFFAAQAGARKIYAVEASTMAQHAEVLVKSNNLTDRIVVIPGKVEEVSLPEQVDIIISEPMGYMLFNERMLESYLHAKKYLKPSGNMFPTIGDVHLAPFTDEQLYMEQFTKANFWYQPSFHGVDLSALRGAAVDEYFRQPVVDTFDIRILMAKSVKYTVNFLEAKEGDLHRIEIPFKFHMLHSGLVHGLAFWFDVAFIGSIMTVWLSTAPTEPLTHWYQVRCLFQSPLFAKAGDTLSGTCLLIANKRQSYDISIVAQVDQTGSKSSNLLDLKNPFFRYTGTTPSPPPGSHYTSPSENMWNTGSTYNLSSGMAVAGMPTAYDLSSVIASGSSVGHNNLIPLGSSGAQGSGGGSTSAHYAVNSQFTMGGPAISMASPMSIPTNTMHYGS

In patent US20170305922A1, “CARM1 INHIBITORS AND USES THEREOF” (Epizyme, Inc., priority 2014, published 2017):

Key:
[1] = molecular target: Human CARM1 (PRMT4) (Homo sapiens, UniProt Q86X55); test: CARM1 enzyme assay on peptide substrates (3H-SAM Flashplate); conditions: read-out: Biochem IC50; Biochemical assay; CARM1 0.25 nM, 3H-SAM 30 nM, peptide 250 nM
[2] = test system: asymmetric di-methyl PABP1 in RKO cells; test: RKO methylation assay: In Cell Western (ICW) for asymmetric di-methyl PABP1 (PABP1me2a); conditions: read-out: Cellular IC50, Cellular-based (PABP1me2a) ICW (In Cell Western) assay, 48 hours
Excerpt: RKO adherent cells were purchased from ATCC (American Type Culture Collection), Manassas, Va., USA. DMEM/Glutamax medium, penicillin-streptomycin, heat inactivated fetal bovine serum, 0.05% trypsin and D-PBS were purchased from Life Technologies, Grand Island, N.Y., USA. Odyssey blocking buffer, 800CW goat anti-rabbit IgG (H+L) antibody, and Licor Odyssey infrared scanner were purchased from Licor Biosciences, Lincoln, Nebr., USA. Asymmetric di-methyl PABP1 antibody was purchased from Cell Signaling Technology, Danvers, Mass., USA. Methanol was purchased from VWR, Franklin, Mass., USA. 10% Tween 20 was purchased from KPL, Inc., Gaithersburg, Md., USA. Paraformaldehyde (PFA) was purchased from EM Sciences. DRAQ5 was purchased from Biostatus Limited, Leicestershire, UK.
RKO adherent cells were maintained in growth medium (DMEM/Glutamax medium supplemented with 10% v/v heat inactivated fetal bovine serum and 100 units/mL penicillin-streptomycin) and cultured at 37° C. under 5% CO2.
Cell treatment, In Cell Western (ICW) for detection of asymmetric di-methyl PABP1 and DNA content: RKO cells were seeded in assay medium at a concentration of 30,000 cells per mL to a poly-D-lysine coated 384 well culture plate (BD Biosciences 356697) with 50 μL per well. Compound (100 nL) from a 96-well source plate was added directly to 384 well cell plate. Plates were incubated at 37° C., 5% CO2 for 48 hours. After two days of incubation, plates were brought to room temperature outside of the incubator for ten minutes and blotted on paper towels to remove cell media. Cells were fixed for 20 minutes at room temperature by adding 50 ul of 8% PFA followed by aspiration of supernatant with the Biotek EL406 plate washer. Cells were then permeabilized by addition of 50 μL of ice cold 100% methanol directly to each well and incubated for 30 min at room temperature. After 30 min, plates were transferred to a Biotek EL406 plate washer and washed 2 times with 100 μL per well of wash buffer (1×PBS). Next 60 μL per well of Odyssey blocking buffer (Odyssey Buffer with 0.1% Tween 20 (v/v)) were added to each plate and incubated 1 hour at room temperature. Blocking buffer was removed and 20 μL per well of primary antibody was added (asymmetric-methyl PABP1) diluted 1:400 in Odyssey buffer with 0.1% Tween 20 (v/v)) and plates were incubated overnight (16 hours) at 4° C. Plates were washed 5 times with 100 μL per well of wash buffer. Next 20 μL per well of secondary antibody was added (1:800 800CW goat anti-rabbit IgG (H+L) antibody, 1:2000 DRAQ5 in Odyssey buffer with 0.1% Tween 20 (v/v)) and incubated for 1 hour at room temperature. The plates were washed 5 times with 100 μL per well wash buffer then 2 times with 100 μL per well of water. Plates were allowed to dry at room temperature then imaged on the Licor Odyssey machine which measures integrated intensity at 700 nm and 800 nm wavelengths. Both 700 and 800 channels were scanned.
First, the ratio for each well was determined by:
Each plate included fourteen control wells of DMSO only treatment (minimum inhibition) as well as fourteen control wells for maximum inhibition treated with 20 μM of a reference compound. The average of the ratio values for each control type was calculated and used to determine the percent […] for each test well in the plate. Reference compound was serially diluted three-fold in DMSO for a total of nine test concentrations, beginning at 20 μM.
Percent inhibition was determined and IC50 curves were generated using triplicate wells per concentration of compound.

Structure (SMILES) | IC50 [1] [µM] | IC50 [2] [µM]
CNC[C@@H](O)COc1ccc(Cl)c(-c2nc(-c3c(Cl)cnn3C)c(C)c(N3Cc4cnc(C5CC5)nc4C3)n2)c1 | 0.00176 | 0.0542
CNC[C@@H](O)COc1ccc(Cl)c(-c2nc(-c3c(C)noc3C)c(C)c(N3CC4CC3CN(CC(F)F)C(=O)O4)n2)c1 (single isomer, unassigned) [138] | 0.0046 | 0.581
CNC[C@@H](O)COc1ccc(Cl)c(-c2nc(-c3c(C)c(Br)nn3C)c(C)c(N3Cc4ccc(N5CCC5)nc4C3)n2)c1 | 0.0012 | 0.03
CNC[C@@H](O)COc1ccc(Cl)c(-c2nc(-c3c(C)noc3C)c(C)c(N3C4CCC3c3ncccc34)n2)c1 (stereo partly shown) | 0.006 | 1.4
CNC[C@@H](O)COc1ccc(Cl)c(-c2nc(-c3c(Br)cnn3C)c(C)c(N3Cc4cccnc4C3)n2)c1 | 0.0012 | 0.071
CCOc1ncc2c(n1)CN(c1nc(-c3cc(OC[C@H](O)CNC)ccc3Cl)nc(-c3c(Br)cnn3C)c1C)C2 | 0.002 | 0.0368
CNC[C@@H](O)COc1ccc(Cl)c(-c2nc(-c3c(C)noc3C)c(C)c(N3CC4CC3CN(CC(F)F)C(=O)O4)n2)c1 (single isomer, unassigned) [132] | 0.0066 | 0.637
CNC[C@@H](O)COc1ccc(Cl)c(-c2nc(-c3c(Br)cnn3C)c(C)c(N3Cc4cnc(N5CC(OC)C5)nc4C3)n2)c1 | 0.00117 | 0.0162
CNC[C@@H](O)COc1ccc(Cl)c(-c2nc(-c3c(C)c(Cl)nn3C)c(C)c(N3Cc4cnc(N5CC(OC)C5)nc4C3)n2)c1 | 0.003 | 0.026
CNC[C@@H](O)COc1ccc(Cl)c(-c2nc(-c3c(C)c(Br)nn3C)c(C)c(N3Cc4cccnc4C3)n2)c1 | 0.0008 | 0.021
CNC[C@@H](O)COc1ccc(Cl)c(-c2nc(-c3c(Br)cnn3C)c(C)c(N3CC4=C(CN(C(=O)OC)CC4)C3)n2)c1 | 0.00476 | 0.0423
